Measured values: patent publication US11780821B2, “Inhibitors of fibroblast activation protein” (Praxis Biotech LLC, priority 2017, dated 2023)
pIC50: −log10 of the molar value.

Amino acid sequences for entries named in this document (tags omitted). A change or cut given only in a name is not applied to a line headed by its entry.
UniProt P28843: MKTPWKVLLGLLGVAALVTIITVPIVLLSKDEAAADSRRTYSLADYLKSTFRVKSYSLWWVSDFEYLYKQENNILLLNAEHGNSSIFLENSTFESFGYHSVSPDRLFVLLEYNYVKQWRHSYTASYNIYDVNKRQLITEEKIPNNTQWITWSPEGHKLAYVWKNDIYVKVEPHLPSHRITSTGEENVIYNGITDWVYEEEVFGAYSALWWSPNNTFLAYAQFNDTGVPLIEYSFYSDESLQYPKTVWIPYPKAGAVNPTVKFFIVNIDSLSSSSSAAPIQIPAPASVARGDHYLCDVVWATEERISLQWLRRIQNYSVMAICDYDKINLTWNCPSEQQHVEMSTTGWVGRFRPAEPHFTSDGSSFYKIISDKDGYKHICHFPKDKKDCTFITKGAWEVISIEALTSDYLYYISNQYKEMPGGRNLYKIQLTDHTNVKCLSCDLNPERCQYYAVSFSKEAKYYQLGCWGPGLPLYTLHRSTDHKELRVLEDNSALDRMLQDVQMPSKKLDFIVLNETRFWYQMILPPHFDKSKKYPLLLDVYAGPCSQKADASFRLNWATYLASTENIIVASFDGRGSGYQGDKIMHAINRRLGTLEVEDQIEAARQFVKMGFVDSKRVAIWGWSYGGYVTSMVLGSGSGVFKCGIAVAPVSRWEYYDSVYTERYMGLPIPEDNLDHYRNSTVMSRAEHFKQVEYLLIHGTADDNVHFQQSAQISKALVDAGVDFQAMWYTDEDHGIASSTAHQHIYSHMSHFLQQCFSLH

Target: T1, recombinant mouse DPPIV (rmDPPIV) (Mus musculus, UniProt P28843)
T1 construct: purchased R&S system (so in the source)
Assay: DPPIV enzymatic activity assay
Assay type: biochemical
Procedure: To assay baseline dipeptidyl peptidase-4 (DPPIV) activity, 40 ng of recombinant human DPPIV (rhDPPIV) (R&S system, #1180-SE) or 40 ng of recombinant mouse DPPIV (rmDPPIV) (R&S system, #954-SE) was incubated with 400 μM of H-Gly-Pro-pNA substrate (BACHEM, #L-1880) in a DPPIV assay buffer (25 mM Tris, pH 8.3) for 30 min at 37° C. protected from the light in 96-well black plates (Nunc, #237108). To assay DPPIV inhibition by test compounds, test compounds were pre-incubated with the enzyme for 15 min at 37° C. before starting the reaction by substrate addition in 96-well black plates (Nunc, #237108). Para-nitroaniline (pNA) release was detected by measuring absorbance at 405 nm using a Multifunction Microplate Reader (Synergy 4, Biotek). All measurements were carried out in triplicate.

CC(C)[C@H](N)C(=O)N1CCC[C@H]1B(O)O [Val-boroPro]
pIC50: > 6.00
